Values quoted from earlier work, collected in US9061054B2, “ErbB-2 receptor targeting peptide” (The Curators of The University of Missouri, priority 2002, dated 2015).

Details: in vivo; cited from earlier work

In the case of “Herceptin: humanized monoclonal antibody against ErbB-2”, the cardiac toxicity is listed as “aggravate doxorubicin-induced cardiac dysfunction”.
